Data as given in publication PMC6626687.

Molecular target: F-actin (UniProt P60709)
Assay: co-sedimentation

Row | Substance | percent recovered in the F-actin pellet | percent recovered in the F-actin pellet, with full-length tau present | percent recovered in the F-actin pellet, with tau45-230 present
1 | recombinant tau_(45-230) (from UniProt P10636-8 45-230) (domain or fragment) | 19% | 29% | –
2 | recombinant full-length tau (from UniProt P10636-4 1-381) (natural protein) | 43% | – | 25%
